Test results published in patent US20110003847A1, “Prasugrel Salts with Improved Properties” (HELM AG, priority 2008, published 2011).

Key:
[1] = Corrosiveness of the salts; type: physicochemical
[2] = Storage of prasugrel-coated lactose in an open container (colour); type: physicochemical; conditions: after 14 days of storage in an open container

Prasugrel-Besylate [prasugrel besylate]
corrosiveness [1]: not corrosive | colour of salt-coated lactose on storage [2]: remained white
